# Measurements from PubChem BioAssay AID434962 (The Scripps Research Institute Molecular Screening Center, 2010).
# The chains behind the UniProt entries cited, without tags or fusion partners.
# UniProt P14735, whole entry, looked up: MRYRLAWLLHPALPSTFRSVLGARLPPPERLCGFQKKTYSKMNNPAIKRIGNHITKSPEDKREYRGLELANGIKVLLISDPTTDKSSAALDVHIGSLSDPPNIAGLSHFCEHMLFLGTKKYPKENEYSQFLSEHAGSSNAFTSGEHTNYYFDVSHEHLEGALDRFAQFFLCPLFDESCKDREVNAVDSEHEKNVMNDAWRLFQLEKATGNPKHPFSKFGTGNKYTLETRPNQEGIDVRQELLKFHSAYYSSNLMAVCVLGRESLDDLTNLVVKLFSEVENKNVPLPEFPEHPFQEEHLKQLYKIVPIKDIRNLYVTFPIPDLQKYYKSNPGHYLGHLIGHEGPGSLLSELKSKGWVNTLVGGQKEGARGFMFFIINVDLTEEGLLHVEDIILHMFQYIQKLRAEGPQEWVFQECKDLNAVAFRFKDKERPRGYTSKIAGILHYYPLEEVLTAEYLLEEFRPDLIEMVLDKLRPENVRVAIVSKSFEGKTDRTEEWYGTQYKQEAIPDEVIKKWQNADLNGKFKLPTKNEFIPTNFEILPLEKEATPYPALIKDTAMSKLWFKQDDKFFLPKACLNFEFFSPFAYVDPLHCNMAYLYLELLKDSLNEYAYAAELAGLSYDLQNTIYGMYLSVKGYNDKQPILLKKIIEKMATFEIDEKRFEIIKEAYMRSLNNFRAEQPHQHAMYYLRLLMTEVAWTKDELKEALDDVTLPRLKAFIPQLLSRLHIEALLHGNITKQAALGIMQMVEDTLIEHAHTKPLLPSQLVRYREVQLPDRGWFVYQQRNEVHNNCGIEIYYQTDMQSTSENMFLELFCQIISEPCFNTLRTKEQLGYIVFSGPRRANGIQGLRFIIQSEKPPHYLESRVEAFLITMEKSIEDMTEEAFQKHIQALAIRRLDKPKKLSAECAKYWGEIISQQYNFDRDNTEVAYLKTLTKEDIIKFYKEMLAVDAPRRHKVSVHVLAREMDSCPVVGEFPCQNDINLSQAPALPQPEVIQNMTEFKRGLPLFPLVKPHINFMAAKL
# This is a selection; strong and weak results do not stand in their true shares. Active and inactive are the calls of the source.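 The calls were made as follows: active = percent inhibition above the average of all tested compounds plus 3 SD, set per screening campaign (cut at about 16% in these data); inactive = the rest.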
# Biological target: Insulin-degrading enzyme (Homo sapiens) (UniProt P14735)
# Assay: cellular IDE Abeta-cleavage inhibition – fluorescence polarization, HEK cells, FAbetaB substrate, primary screen (AID 434962);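 also: IDE supplied by intact live HEK cells; FP after avidin binding of uncleaved biotin substrate so inhibition keeps polarization high; 0% = DMSO wells and 100% = 60 µM reference IDE inhibitor Ii1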
# Conditions: at 5.59 µM, stronger effect = higher value
row,SMILES,inhibition
1,O=c1c2ccccc2[se]n1-c1ccccc1,active: 100%
